Target: σ1 receptor (Cavia porcellus, UniProt Q60492)
Test: σ1 receptor binding, [^3H]
Settings: σ1 (Ki [nM]), guinea pig brain membranes; mean ± SEM

The chains behind the UniProt entries cited, without tags or fusion partners.
UniProt Q60492, whole entry: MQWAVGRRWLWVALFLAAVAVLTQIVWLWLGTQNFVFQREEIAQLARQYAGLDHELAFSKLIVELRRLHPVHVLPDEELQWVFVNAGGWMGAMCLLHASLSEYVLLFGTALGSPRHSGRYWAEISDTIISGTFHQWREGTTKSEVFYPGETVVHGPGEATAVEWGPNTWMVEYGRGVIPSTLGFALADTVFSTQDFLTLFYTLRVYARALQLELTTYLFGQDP

`O=C(c1ccc(F)cc1)C1CCN([C@@H]2Cc3ccccc3C[C@H]2O)CC1` (single isomer, unassigned) [(-)-9e] was tested, and the Ki was 659 ± 118 nM.

From article PMC2765529 (Journal of medicinal chemistry, 2009)
